From PubChem BioAssay AID485 (The Scripps Research Institute Molecular Screening Center, 2006) come the findings set out here.

By UniProt entry, the sequences of proteins in these tests, tags left out.
UniProt Q99500, whole entry: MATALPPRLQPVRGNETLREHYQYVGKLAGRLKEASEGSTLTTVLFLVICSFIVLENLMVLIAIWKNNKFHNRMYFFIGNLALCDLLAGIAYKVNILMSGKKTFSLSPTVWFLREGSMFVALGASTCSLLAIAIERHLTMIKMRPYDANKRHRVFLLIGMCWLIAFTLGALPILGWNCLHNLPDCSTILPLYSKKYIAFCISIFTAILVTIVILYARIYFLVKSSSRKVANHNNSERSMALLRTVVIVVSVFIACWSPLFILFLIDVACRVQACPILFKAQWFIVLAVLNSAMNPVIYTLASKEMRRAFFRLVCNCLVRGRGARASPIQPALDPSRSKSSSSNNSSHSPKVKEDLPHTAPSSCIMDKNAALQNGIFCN

As a reminder, the inhibition is the change of the read-out against control, counted positive when it falls.

The entries are a selection whose mix differs from that of the whole data set. Calls of active or inactive are those of the source.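 The calls were made as follows: active = inhibition above the plate cutoff, the mean inhibition of test wells on that plate plus 3 SD (cut at about 28% in these data); inactive = the rest.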

This assay has as its target Sphingosine 1-phosphate receptor 3 (Homo sapiens) (UniProt Q99500). Put plainly: S1P3 receptor antagonists, primary screen, cell-based (AID 485).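 Also: cells challenged with S1P at its EC80 of 0.8 µM; blue over green emission ratio from cleaved BLA substrate after 4 h stimulation; 0% = S1P-stimulated wells and 100% = unstimulated DMSO-only wells.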 To be noted: CHO S1P3 NFAT-BLA reporter, FRET fluorescence, antagonist mode; at 4.98 µM; hits give high values.
Consider `CCOC(=O)c1ccc(NP(C)(=O)Oc2ccc(Cl)cc2)cc1` (centres undefined), for which the inhibition was inactive: -2.07%.
In the case of `CP(=O)(Oc1ccccc1)N1CCOC1=O` (centres undefined) it was inactive: 7.5%; in that of `CCc1ccc(OP(C)(=O)Nc2cccnc2)cc1` (centres undefined), inactive: -2.95%; in that of `COc1ccccc1OP(C)(=O)Nc1c(C)n(C)n(-c2ccccc2)c1=O` (centres undefined), inactive: -3.9%.
In the case of `O=C(OCCCN1CCCC1)C(O)(c1ccccc1)C1CCCCC1` (centres undefined) it was inactive: 3.98%; in that of `COc1ccc(OP(C)(=O)Nc2ccc(Br)cc2)cc1` (centres undefined), inactive: -3.37%; in that of `CN(C)C(=O)c1c([N+](=O)[O-])cc([N+](=O)[O-])cc1[N+](=O)[O-]`, inactive: -3.53%.
In the case of `COc1ccccc1OP(C)(=O)Nc1ccccc1Br` (centres undefined) it was inactive: 3.46%; in that of `COc1ccccc1OP(C)(=O)Nc1ccc(Br)cc1` (centres undefined), inactive: 2.76%; in that of `CP(=O)(Nc1ccccn1)Oc1ccccc1` (centres undefined), inactive: -26.1%.
As for `O=[N+]([O-])c1cc([N+](=O)[O-])c(Nc2ccccn2)c([N+](=O)[O-])c1`, the inhibition was inactive: 6.06%.
Next, `COc1ccc(OP(C)(=O)Nc2ccccc2Br)cc1` (centres undefined): inactive: -2.54%; `COc1ccccc1OP(C)(=O)Nc1ccc(C)c(C)c1` (centres undefined): inactive: -8.9%; `Cc1cc(C)cc(OP(C)(=O)Nc2cccc(C(F)(F)F)c2)c1` (centres undefined): inactive: 8.56%.
With `CP(=O)(OCCOc1ccccc1)OCCOc1ccccc1`, the inhibition was inactive: 6.36%.
In the case of `CP(=O)(Nc1ccc(Cl)cc1Cl)Oc1ccccc1` (centres undefined) it was inactive: -14.2%; in that of `Cc1nc2ccc3ccccc3c2o1.O=[N+]([O-])c1cc([N+](=O)[O-])c(O)c([N+](=O)[O-])c1`, inactive: -13.6%; in that of `COc1ccc(OP(C)(=O)Nc2ccc(SC(F)(F)F)cc2)cc1` (centres undefined), inactive: -18.2%.
Next, `CCOC(=O)c1ccc(NP(C)(=O)Oc2ccc(F)cc2)cc1` (centres undefined): inactive: -4.9%; `CCCCCOc1ccc(NP(C)(=O)Oc2ccc(Cl)cc2Cl)cc1` (centres undefined): inactive: -7.64%.
Take `CC(C)c1ccc(OP(C)(=O)Nc2ccc(SC(F)(F)F)cc2)cc1` (centres undefined): the inhibition is inactive: 11.6%.
As for `CP(=O)(Nc1ccccc1F)Oc1ccccc1` (centres undefined), the inhibition was inactive: 9.3%.
In the case of `O=C(OCCN1CCN(CCOCc2ccccc2)CC1)C(O)(c1ccccc1)c1ccccc1` it was inactive: 12.1%; in that of `O=C(OC1CN2CCC1CC2)c1ccc([N+](=O)[O-])cc1` (centres undefined), inactive: 0.4%; in that of `CCOP(C)(=S)SCC(=O)NC(C)(CC)C(=O)O` (centres undefined), inactive: -10%.
Next, `CP(=O)(Nc1ccc(SC(F)(F)F)cc1)Oc1ccc(F)cc1` (centres undefined): inactive: 0.93%; `Cc1ccccc1NP(C)(=O)Nc1ccccc1C`: inactive: -28.9%.
In the case of `COc1ccc(NP(C)(=O)Oc2ccccc2OC)cc1` (centres undefined) it was inactive: -6.91%; in that of `CN(C)CCOC(=O)C(O)(c1ccccc1)C1CCCCC1` (centres undefined), inactive: -6%.
Take `O=[N+]([O-])c1cc([N+](=O)[O-])c(NCC2CCS(=O)(=O)C2)c([N+](=O)[O-])c1` (centres undefined): the inhibition is inactive: 12.1%.
Next, `Cc1cc(-c2cccc3ccccc23)c(C)cn1.O=[N+]([O-])c1cc([N+](=O)[O-])c(O)c([N+](=O)[O-])c1`: inactive: -2.39%; `O=[N+]([O-])c1ccc(OP2(=O)COCCO2)cc1` (centres undefined): inactive: 5.8%; `O=[N+]([O-])c1cc([N+](=O)[O-])c(Nc2nnnn2CCO)c([N+](=O)[O-])c1`: inactive: 3.32%.
Next, `CCOC(=O)C(CC)C1=NC(C)(C)Cc2ccccc21.O=[N+]([O-])c1cc([N+](=O)[O-])c(O)c([N+](=O)[O-])c1` (centres undefined): inactive: -3.2%; `CP(=O)(Nc1ccc(SC(F)(F)F)cc1)Oc1ccccc1` (centres undefined): inactive: 7.75%.
Next, `CCCOc1ccc(NP(C)(=O)Oc2ccc(Cl)cc2)cc1` (centres undefined): inactive: -11.2%; `CN1CCCCC1COC(=O)C1(O)c2ccccc2CCc2ccccc21` (centres undefined): inactive: 18.6%.
For `O=[N+]([O-])c1cc([N+](=O)[O-])c(-n2nnc3ccccc32)c([N+](=O)[O-])c1`, the inhibition is inactive: 8.5%.
In the case of `Cc1nc2ccc3ccccc3c2s1.O=[N+]([O-])c1cc([N+](=O)[O-])c(O)c([N+](=O)[O-])c1` it was inactive: -5.6%; in that of `CCOC(=O)c1ccc(NP(C)(=O)Oc2cc(C)cc(C)c2)cc1` (centres undefined), inactive: 3.1%; in that of `COc1ccccc1OP(C)(=O)Nc1cccc(Br)c1` (centres undefined), inactive: 0.55%.
Next, `CP(=O)(Nc1cccc(Br)c1)Oc1ccccc1` (centres undefined): inactive: -5.94%; `Cc1ccc(C)c(NP(C)(=O)Oc2ccccc2)c1` (centres undefined): inactive: -10.5%; `O=C(O)c1cccc(Nc2c([N+](=O)[O-])cc([N+](=O)[O-])cc2[N+](=O)[O-])c1`: inactive: -26.4%.
Take `CC1=NCCc2c1[nH]c1ccccc21.O=[N+]([O-])c1cc([N+](=O)[O-])c(O)c([N+](=O)[O-])c1`: the inhibition is inactive: -4.12%.
In the case of `CC(C)(C)c1ccc(OP(C)(=O)Nc2ccc(SC(F)(F)F)cc2)cc1` (centres undefined) it was inactive: -0.24%; in that of `Cc1cccc(C)c1OP(C)(N)=O` (centres undefined), inactive: -3.01%; in that of `O=[N+]([O-])c1ccc2c(c1)C=Nc1ccccc1O2`, inactive: -8.99%.
In the case of `COc1ccccc1OP(C)(=O)Nc1cc(Cl)ccc1C` (centres undefined) it was inactive: -1.89%; in that of `Cc1cc(C)cc(OP(C)(N)=O)c1` (centres undefined), inactive: -12.9%; in that of `CCOC(=O)c1ccc(NP(C)(=O)Oc2ccccc2)cc1` (centres undefined), inactive: 5.01%.
Take `COc1ccccc1OP(C)(=O)Nc1ccc(C)cc1` (centres undefined): the inhibition is inactive: -30.7%.
Next, `Cc1ccc(NP(C)(=O)Oc2ccccc2)c(C)c1` (centres undefined): inactive: 19.3%; `CCN(CC)CCCOC(=O)C(O)(c1ccccc1)c1ccccc1`: inactive: 13.8%; `CCc1ccc(OP(C)(=O)N2CCN(c3ccc([N+](=O)[O-])cc3)CC2)cc1` (centres undefined): inactive: -0.96%.
In the case of `Cc1cc(C)cc(OP(C)(=O)Nc2ccc(SC(F)(F)F)cc2)c1` (centres undefined) it was inactive: -1.16%; in that of `Cc1cccc(C)c1OP(C)(=O)Nc1ccc(SC(F)(F)F)cc1` (centres undefined), inactive: -10.9%; in that of `CP(=O)(Nc1ccc(SC(F)(F)F)cc1)Oc1ccc(Cl)cc1` (centres undefined), inactive: 1.04%.
Next, `CP(=O)(Oc1ccccc1)OC(c1ccccc1)C(F)(F)F` (centres undefined): inactive: -20%.
For the compound `CCOP(C)(=S)SCC(=O)NC(C)C(=O)O` (centres undefined), the inhibition is inactive: -8.2%.
In the case of `CCOC(=O)c1ccc(NP(C)(=O)Oc2ccc(OC)cc2)cc1` (centres undefined) it was inactive: 11.6%; in that of `COc1ccccc1OP(C)(=O)Nc1ccccc1` (centres undefined), inactive: -9.99%; in that of `CP(=O)(Nc1ccccc1Br)Oc1ccccc1` (centres undefined), inactive: 0.89%.
Next, `CP(=S)(Nn1cnnc1)Oc1ccccc1` (centres undefined): inactive: 5.3%.
